# Experimental data as given in article PMC5864910, “Mutacin 1140 Lantibiotic Variants Are Efficacious Against Clostridium difficile Infection” (Frontiers in Microbiology, 2018).
# The chains behind the UniProt entries cited, without tags or fusion partners. Residues count along the entry.
# UniProt P41595, whole entry: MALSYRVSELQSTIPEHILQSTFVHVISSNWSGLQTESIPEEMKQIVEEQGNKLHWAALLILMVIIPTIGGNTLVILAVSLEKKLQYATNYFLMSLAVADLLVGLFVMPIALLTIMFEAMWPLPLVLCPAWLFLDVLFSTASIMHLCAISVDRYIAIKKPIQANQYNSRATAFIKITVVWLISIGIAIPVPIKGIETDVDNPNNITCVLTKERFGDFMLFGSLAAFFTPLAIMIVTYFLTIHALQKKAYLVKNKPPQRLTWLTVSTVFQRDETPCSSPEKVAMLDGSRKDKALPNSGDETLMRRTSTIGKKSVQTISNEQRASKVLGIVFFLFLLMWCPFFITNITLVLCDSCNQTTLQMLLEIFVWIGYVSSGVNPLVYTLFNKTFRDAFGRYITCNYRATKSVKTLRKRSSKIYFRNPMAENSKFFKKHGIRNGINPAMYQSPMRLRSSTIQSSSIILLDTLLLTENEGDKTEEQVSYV
# UniProt P20309, whole entry: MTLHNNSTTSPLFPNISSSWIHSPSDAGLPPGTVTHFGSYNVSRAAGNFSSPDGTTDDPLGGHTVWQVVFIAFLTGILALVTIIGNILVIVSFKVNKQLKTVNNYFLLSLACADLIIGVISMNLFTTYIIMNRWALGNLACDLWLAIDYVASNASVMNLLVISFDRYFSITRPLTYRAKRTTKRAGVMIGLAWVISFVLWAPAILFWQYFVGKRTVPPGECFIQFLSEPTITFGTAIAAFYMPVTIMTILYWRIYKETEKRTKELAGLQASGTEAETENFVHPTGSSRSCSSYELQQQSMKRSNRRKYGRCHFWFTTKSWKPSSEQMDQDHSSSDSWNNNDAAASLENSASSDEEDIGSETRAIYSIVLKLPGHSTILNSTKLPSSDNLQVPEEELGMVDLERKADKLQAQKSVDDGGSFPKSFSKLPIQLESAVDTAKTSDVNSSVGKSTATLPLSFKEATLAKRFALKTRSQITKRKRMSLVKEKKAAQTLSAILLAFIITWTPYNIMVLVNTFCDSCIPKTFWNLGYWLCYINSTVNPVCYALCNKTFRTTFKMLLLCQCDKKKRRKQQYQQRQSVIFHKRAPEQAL
# UniProt P21554, whole entry: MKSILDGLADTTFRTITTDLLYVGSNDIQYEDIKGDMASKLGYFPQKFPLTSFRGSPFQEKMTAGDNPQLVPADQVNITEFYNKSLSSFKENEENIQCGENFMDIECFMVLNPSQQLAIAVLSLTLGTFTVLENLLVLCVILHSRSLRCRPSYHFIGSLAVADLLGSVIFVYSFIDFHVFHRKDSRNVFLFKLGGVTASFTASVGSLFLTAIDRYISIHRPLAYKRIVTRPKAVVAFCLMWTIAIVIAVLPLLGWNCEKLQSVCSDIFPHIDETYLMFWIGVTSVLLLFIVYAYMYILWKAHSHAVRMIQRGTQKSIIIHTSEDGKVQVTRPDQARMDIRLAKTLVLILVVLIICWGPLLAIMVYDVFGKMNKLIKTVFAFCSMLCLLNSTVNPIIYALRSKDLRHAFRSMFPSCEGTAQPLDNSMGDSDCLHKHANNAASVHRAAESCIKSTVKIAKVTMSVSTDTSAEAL
# UniProt Q08499, 303-809 limits assumed: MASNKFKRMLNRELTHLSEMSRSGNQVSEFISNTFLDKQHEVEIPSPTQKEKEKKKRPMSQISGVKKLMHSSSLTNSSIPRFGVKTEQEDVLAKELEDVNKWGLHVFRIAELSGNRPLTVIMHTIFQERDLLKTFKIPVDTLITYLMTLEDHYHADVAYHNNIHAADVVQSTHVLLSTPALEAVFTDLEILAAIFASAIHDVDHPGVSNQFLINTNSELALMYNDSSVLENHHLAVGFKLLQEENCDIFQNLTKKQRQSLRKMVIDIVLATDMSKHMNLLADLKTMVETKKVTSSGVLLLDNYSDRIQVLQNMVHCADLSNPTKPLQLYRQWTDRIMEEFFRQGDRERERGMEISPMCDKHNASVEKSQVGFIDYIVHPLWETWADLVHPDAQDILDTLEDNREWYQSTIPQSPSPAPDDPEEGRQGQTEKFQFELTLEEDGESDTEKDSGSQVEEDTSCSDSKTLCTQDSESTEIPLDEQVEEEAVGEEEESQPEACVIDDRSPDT
# UniProt P28223, whole entry: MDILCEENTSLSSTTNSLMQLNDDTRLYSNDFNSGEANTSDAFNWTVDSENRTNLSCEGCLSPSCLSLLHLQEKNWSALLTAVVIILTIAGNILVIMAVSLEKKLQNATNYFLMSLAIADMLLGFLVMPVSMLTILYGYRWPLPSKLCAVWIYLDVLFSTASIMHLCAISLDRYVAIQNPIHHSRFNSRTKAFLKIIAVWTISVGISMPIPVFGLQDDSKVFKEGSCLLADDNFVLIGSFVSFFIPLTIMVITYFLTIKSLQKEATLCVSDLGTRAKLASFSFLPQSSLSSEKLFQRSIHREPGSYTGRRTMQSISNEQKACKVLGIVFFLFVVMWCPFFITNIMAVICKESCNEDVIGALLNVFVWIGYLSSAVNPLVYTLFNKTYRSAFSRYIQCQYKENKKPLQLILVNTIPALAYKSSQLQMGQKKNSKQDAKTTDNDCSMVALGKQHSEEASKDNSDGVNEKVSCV
# UniProt P35367, whole entry: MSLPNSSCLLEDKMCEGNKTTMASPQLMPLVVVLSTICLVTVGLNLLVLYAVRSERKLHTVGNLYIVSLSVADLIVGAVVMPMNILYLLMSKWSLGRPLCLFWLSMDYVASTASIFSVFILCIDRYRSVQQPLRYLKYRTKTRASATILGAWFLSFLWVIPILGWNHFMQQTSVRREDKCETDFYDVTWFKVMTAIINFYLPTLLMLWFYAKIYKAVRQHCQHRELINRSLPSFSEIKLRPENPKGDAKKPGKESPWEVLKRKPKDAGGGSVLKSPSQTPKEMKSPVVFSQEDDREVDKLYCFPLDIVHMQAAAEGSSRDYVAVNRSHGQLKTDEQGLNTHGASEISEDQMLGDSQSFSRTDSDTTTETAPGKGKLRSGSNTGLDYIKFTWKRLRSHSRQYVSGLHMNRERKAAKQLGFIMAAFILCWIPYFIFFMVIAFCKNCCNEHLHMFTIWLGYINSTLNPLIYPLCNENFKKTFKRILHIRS
# UniProt P22303, 32-614: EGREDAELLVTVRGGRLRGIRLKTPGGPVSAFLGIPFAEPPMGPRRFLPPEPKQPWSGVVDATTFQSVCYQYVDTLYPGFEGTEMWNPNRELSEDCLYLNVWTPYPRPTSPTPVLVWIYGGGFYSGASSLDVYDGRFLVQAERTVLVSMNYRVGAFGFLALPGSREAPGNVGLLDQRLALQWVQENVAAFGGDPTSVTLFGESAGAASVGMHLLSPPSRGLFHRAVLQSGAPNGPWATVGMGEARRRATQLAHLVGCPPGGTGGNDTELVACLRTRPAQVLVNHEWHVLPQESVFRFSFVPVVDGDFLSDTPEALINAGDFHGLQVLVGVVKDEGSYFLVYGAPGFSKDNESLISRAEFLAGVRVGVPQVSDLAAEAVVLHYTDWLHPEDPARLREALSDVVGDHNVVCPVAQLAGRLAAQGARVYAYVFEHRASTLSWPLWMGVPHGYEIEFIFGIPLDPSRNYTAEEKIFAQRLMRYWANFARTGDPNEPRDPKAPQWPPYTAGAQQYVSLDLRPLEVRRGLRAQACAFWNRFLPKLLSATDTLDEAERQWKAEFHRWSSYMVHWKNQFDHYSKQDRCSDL
# UniProt P35372, whole entry: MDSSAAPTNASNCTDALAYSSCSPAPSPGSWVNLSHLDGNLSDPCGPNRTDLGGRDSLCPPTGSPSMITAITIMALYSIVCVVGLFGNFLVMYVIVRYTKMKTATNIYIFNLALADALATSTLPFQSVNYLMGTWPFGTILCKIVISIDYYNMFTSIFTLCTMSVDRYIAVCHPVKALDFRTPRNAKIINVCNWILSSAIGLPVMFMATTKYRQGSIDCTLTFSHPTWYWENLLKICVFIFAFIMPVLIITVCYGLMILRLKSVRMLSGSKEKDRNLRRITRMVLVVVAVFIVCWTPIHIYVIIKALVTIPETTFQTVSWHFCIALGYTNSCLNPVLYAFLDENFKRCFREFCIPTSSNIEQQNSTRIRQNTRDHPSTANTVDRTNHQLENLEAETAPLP
# UniProt P08588, whole entry: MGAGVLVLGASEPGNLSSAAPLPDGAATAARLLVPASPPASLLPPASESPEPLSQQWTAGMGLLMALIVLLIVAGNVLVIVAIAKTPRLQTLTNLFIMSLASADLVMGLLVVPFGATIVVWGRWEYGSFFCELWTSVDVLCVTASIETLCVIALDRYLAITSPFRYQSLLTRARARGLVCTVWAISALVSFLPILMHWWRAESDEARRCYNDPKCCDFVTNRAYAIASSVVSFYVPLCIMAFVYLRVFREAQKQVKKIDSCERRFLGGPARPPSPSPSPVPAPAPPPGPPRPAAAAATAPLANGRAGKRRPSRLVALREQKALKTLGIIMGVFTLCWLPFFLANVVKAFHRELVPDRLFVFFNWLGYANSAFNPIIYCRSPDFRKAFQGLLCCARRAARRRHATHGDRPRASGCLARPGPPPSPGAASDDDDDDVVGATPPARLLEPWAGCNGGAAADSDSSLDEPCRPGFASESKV
# UniProt P25021, whole entry: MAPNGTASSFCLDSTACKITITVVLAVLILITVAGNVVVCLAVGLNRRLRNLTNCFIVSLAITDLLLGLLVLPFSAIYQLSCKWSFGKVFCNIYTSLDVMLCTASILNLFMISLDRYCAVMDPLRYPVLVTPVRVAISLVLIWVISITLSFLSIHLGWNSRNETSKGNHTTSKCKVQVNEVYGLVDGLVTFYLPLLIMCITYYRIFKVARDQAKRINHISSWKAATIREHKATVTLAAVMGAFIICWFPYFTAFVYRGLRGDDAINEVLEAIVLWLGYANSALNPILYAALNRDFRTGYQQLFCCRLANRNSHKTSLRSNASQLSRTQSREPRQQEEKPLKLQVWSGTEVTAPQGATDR
# UniProt P17787, 26-502: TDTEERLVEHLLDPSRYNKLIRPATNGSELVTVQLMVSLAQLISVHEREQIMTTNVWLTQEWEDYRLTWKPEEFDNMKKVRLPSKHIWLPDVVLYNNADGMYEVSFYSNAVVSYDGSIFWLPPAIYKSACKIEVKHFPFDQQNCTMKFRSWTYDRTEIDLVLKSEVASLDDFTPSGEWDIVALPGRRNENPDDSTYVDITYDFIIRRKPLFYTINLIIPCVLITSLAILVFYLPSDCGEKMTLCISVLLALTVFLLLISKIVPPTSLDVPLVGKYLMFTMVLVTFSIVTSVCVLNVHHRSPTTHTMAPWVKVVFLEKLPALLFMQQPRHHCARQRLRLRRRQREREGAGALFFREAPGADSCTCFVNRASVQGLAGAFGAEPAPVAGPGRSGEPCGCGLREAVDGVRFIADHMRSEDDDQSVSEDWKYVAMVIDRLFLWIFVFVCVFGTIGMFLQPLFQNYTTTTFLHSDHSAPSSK
# UniProt Q01959, whole entry: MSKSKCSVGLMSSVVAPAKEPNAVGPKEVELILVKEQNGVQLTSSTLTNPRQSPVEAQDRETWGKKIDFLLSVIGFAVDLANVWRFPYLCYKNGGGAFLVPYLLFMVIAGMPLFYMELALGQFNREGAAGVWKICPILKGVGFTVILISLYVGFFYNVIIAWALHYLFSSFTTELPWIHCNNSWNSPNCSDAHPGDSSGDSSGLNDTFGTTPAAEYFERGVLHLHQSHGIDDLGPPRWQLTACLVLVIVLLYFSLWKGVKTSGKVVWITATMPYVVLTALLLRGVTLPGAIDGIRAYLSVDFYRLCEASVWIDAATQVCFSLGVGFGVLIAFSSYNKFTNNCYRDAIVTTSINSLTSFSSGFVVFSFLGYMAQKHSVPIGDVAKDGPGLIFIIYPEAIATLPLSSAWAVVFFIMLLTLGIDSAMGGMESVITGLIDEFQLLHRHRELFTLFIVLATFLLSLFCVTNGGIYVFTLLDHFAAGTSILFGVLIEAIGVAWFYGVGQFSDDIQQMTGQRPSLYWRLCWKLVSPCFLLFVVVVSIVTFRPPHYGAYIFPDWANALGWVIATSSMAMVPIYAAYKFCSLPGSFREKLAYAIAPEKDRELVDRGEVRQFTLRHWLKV
# UniProt P28564, whole entry: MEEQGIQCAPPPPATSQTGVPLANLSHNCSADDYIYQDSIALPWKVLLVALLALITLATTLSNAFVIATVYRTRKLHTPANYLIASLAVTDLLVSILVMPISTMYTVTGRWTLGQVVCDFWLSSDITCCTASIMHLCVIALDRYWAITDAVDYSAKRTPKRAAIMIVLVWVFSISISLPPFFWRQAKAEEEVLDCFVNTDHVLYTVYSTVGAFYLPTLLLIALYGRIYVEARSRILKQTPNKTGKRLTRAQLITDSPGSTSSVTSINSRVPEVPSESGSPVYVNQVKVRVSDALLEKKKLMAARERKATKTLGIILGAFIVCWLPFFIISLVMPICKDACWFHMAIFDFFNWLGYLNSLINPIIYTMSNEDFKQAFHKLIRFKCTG
# Key:
# [1] = target: T1, 5-HT (2B) (Homo sapiens, UniProt P41595)
# [2] = target: M3 (Homo sapiens, UniProt P20309)
# [3] = target: T2, CB1 (Homo sapiens, UniProt P21554)
# [4] = target: PDE4D2 (Homo sapiens, UniProt Q08499)
# [5] = target: T3, 5-HT (2A) (Homo sapiens, UniProt P28223)
# [6] = target: T4, H1 (Homo sapiens, UniProt P35367)
# [7] = target: ACHE (Homo sapiens, UniProt P22303)
# [8] = target: T5, V1a (Homo sapiens, UniProt P37288)
# [9] = target: T6, D1 (Homo sapiens, UniProt P21728)
# [10] = target: T7, Mu (MOP) (Homo sapiens, UniProt P35372)
# [11] = target: kappa (KOP) (Homo sapiens, UniProt P41145)
# [12] = target: Beta1 (Homo sapiens, UniProt P08588)
# [13] = target: T8, H2 (Homo sapiens, UniProt P25021)
# [14] = target: N- neuronal a4b2 (Homo sapiens, UniProt P17787+P43681)
# [15] = target: T9, AR (Homo sapiens, UniProt P10275, T878A)
# T9 sequence (P10275 1-920 T878A): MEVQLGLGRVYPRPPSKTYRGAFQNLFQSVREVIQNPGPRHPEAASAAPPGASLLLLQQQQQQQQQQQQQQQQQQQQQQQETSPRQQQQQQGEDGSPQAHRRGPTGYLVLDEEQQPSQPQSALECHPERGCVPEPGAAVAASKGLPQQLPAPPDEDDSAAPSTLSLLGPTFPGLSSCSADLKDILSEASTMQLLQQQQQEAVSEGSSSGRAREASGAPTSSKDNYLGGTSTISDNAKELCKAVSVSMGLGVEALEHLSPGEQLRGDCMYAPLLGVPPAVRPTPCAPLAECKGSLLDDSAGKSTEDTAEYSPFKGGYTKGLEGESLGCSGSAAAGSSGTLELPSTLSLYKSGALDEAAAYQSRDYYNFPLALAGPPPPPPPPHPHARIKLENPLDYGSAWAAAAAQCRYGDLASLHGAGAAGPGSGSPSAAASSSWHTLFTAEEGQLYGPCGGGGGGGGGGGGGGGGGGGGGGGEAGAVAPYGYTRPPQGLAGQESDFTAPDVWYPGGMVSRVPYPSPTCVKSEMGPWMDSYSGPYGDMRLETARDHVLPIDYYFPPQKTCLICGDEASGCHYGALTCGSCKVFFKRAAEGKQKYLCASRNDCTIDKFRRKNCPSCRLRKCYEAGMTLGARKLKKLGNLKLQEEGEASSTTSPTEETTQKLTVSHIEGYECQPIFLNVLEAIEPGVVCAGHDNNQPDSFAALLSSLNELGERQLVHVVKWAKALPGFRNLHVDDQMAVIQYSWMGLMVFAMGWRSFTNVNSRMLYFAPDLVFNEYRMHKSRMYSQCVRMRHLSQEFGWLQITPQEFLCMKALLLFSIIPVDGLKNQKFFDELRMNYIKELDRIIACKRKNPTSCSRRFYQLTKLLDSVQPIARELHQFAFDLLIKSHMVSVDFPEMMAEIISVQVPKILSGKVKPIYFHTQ
# [16] = target: T1, 5-HT (2B); remark: listed apart in the source
# [17] = system: Safety Screen 44 panel of human recombinant proteins
# [18] = target: T6, D1; remark: listed apart in the source
# [19] = target: Dopamine (Homo sapiens, UniProt Q01959)
# [20] = target: 5-HT (1B) (Rattus norvegicus, UniProt P28564)
# [21] = target: T4, H1; remark: listed apart in the source
# [22] = target: T8, H2; remark: listed apart in the source
# [23] = target: T7, Mu (MOP); remark: listed apart in the source
# [24] = target: PDE3A (Homo sapiens, UniProt Q14432)
# [25] = target: Beta2 (Homo sapiens, UniProt P07550)
# [26] = target: T5, V1a; remark: listed apart in the source
# [27] = target: T3, 5-HT (2A); remark: listed apart in the source
# [28] = target: T2, CB1; remark: listed apart in the source
Structure (SMILES),Cerep SafetyScreen 44 % Inhibition 5-HT (2B) [1] [%],Cerep SafetyScreen 44 % Inhibition M3 [2] [%],Cerep SafetyScreen 44 % Inhibition CB1 [3] [%],Cerep SafetyScreen 44 % Inhibition PDE4D2 [4] [%],Cerep SafetyScreen 44 % Inhibition 5-HT (2A) [5] [%],Cerep SafetyScreen 44 % Inhibition H1 [6] [%],Cerep SafetyScreen 44 % Inhibition ACHE [7] [%],Cerep SafetyScreen 44 % Inhibition V1a [8] [%],Cerep SafetyScreen 44 % Inhibition D1 [9] [%],Cerep SafetyScreen 44 % Inhibition Mu (MOP) [10] [%],Cerep SafetyScreen 44 % Inhibition kappa (KOP) [11] [%],Cerep SafetyScreen 44 % Inhibition Beta1 [12] [%],Cerep SafetyScreen 44 % Inhibition H2 [13] [%],other results
C=C1NC(=O)[C@H](Cc2c[nH]c3ccccc23)NC(=O)[C@H](NC(=O)[C@H](CCCCN)NC(=O)[C@@H](N)Cc2ccccc2)CSC[C@@H](C(=O)N[C@H]2C(=O)N3CCC[C@H]3C(=O)NCC(=O)N[C@H](C(=O)N[C@@H](C)C(=O)N[C@@H](CCCNC(=N)N)C(=O)N/C(=C\C)C(=O)NCC(=O)N[C@@H]3CSC[C@@H]4NC(=O)[C@H](Cc5ccc(O)cc5)NC(=O)[C@@H](CS/C=C\NC4=O)NC(=O)[C@H](CC(N)=O)NC(=O)[C@H](Cc4ccc(O)cc4)NC3=O)CS[C@H]2C)NC(=O)[C@H](CC(C)C)NC1=O [F17Y],-20,3,-1,4,2,-5,-4,18,5,13,20,3,4,
C=C1NC(=O)[C@H](Cc2c[nH]c3ccccc23)NC(=O)[C@H](NC(=O)[C@H](CCCCN)NC(=O)[C@@H](N)Cc2ccccc2)CSC[C@@H](C(=O)N[C@H]2C(=O)N3CCC[C@H]3C(=O)NCC(=O)N[C@H](C(=O)N[C@@H](C)C(=O)N[C@@H](CCCNC(=N)N)C(=O)N/C(=C\C)C(=O)NCC(=O)N[C@@H]3CSC[C@@H]4NC(=O)[C@H](Cc5ccc(O)cc5)NC(=O)[C@@H](CS/C=C\NC4=O)NC(=O)[C@H](CC(N)=O)NC(=O)[C@H](Cc4ccccc4)NC3=O)CS[C@H]2C)NC(=O)[C@H](C)NC1=O [L6A],,,,,,,,,,,,,,Cerep SafetyScreen 44 % Inhibition N- neuronal a4b2 [14]: 0%; Cerep SafetyScreen 44 % Inhibition AR [15]: -8%; Cerep SafetyScreen 44 % Inhibition 5-HT (2B) [16]: 0%; Promiscuity Analysis (% of scores >50%) [17]: 0.000%; Cerep SafetyScreen 44 % Inhibition D1 [18]: -4%; Cerep SafetyScreen 44 % Inhibition Dopamine [19]: -2%; Cerep SafetyScreen 44 % Inhibition 5-HT (1B) [20]: -34%; Cerep SafetyScreen 44 % Inhibition H1 [21]: -3%; Cerep SafetyScreen 44 % Inhibition H2 [22]: -24%; Cerep SafetyScreen 44 % Inhibition Mu (MOP) [23]: 15%; Cerep SafetyScreen 44 % Inhibition PDE3A [24]: -2%; Cerep SafetyScreen 44 % Inhibition Beta2 [25]: -1%; Cerep SafetyScreen 44 % Inhibition V1a [26]: 19%; Cerep SafetyScreen 44 % Inhibition 5-HT (2A) [27]: -3%; Cerep SafetyScreen 44 % Inhibition CB1 [28]: 11%
C=C1NC(=O)[C@H](Cc2c[nH]c3ccccc23)NC(=O)[C@H](NC(=O)[C@H](CCCCN)NC(=O)[C@@H](N)Cc2ccccc2)CSC[C@@H](C(=O)N[C@H]2C(=O)N3CCC[C@H]3C(=O)NCC(=O)N[C@H](C(=O)N[C@@H](C)C(=O)N[C@@H](C)C(=O)N/C(=C\C)C(=O)NCC(=O)N[C@@H]3CSC[C@@H]4NC(=O)[C@H](Cc5ccc(O)cc5)NC(=O)[C@@H](CS/C=C\NC4=O)NC(=O)[C@H](CC(N)=O)NC(=O)[C@H](Cc4ccccc4)NC3=O)CS[C@H]2C)NC(=O)[C@H](CC(C)C)NC1=O [R13A],-37,6,9,3,-9,-17,-15,9,-2,7,-4,2,-1,

# Read-outs that look alike come from different tables or passages of the source.
